# According to US9593100B2, “Compounds and compositions as protein kinase inhibitors” (Array BioPharma, Inc., priority 2009, dated 2017):
# Protein sequences, listed by entry. Tags and fused reporters are not part of them.
# UniProt P15056, whole entry V600E: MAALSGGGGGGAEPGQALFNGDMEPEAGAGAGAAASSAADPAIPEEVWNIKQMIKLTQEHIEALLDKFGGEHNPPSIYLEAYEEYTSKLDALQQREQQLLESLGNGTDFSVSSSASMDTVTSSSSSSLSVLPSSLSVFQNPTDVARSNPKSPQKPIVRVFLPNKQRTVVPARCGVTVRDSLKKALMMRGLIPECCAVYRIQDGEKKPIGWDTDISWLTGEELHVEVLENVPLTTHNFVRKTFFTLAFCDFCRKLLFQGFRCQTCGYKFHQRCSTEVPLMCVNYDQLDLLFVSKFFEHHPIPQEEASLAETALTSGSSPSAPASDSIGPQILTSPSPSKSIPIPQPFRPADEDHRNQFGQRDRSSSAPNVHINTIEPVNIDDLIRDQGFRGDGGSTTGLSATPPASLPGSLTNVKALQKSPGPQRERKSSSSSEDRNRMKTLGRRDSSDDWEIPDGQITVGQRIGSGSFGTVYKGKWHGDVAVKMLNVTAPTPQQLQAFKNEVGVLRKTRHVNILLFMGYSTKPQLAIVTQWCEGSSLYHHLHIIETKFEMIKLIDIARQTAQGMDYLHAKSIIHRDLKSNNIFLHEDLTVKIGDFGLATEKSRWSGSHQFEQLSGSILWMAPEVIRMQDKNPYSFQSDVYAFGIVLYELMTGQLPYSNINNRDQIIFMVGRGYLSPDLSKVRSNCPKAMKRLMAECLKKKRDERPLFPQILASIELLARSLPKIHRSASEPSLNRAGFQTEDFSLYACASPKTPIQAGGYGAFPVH
# Biological target: B-Raf V600E (Homo sapiens (Human), UniProt P15056, V600E)
# Assay: B-Raf V600E/Mek Amplified Luminescence Proximity Homogeneous Assay (B-Raf V600E biochemical)
# Details: IC50, B-Raf V600E/Mek Alpha Screen; read-out: BRAF V600E biochemical
# Experimental: The plate was incubated for 60 minutes at room temperature.
# The B-Raf kinase activity reaction was started by the addition of 10 μl per well of 2×ATP (10 μM) diluted in assay buffer. After 3 hours, the reactions were stopped with the addition of 10 μl of stop reagent (60 mM EDTA, 0.01% Tween20). Phosphorylated product was measured using a rabbit anti-p-MEK (Cell Signaling, #9121) antibody and the Alpha Screen IgG (ProteinA) detection Kit (PerkinElmer #6760617R), by the addition of 30 μl to the well of a mixture of the antibody (1:2000 dilution) and detection beads (1:1000 dilution of both beads) in bead buffer (50 mM Tris, pH 7.5, 0.01% Tween20). The additions were carried out under dark conditions to protect the detection beads from light. A lid was placed on top of the plate and the plate was incubated for 1 hour at room temperature. The luminescence was read on a PerkinElmer Envision instrument. The concentration of each compound for 50% inhibition (IC50) was calculated by non-linear regression using XL Fit data analysis software.
smiles,measurement,value
"COC(=O)N[C@@H](C)CNc1nccc(-c2cn(C(C)C)nc2-c2cc(F)cc(NS(=O)(=O)C3CC3)c2F)n1 [Compound 24, methyl N-[(2S)-1-({4-[3-(3-cyclopropanesulfonamido-2,5-difluorophenyl)-1-(propan-2-yl)-1H-pyrazol-4-yl]pyrimidin-2-yl}amino)propan-2-yl]carbamate]",pIC50,7.64

# pIC50: −log10 of the molar value.
